Results taken from patent publication US6965013B2, “Intermedin and its uses” (The Board of Trustees of the Leland Stanford Junior …, priority 2002, dated 2005).

Amino acid sequences for entries named in this document (tags omitted). Residues count along the entry.
UniProt Q63118, 24-464: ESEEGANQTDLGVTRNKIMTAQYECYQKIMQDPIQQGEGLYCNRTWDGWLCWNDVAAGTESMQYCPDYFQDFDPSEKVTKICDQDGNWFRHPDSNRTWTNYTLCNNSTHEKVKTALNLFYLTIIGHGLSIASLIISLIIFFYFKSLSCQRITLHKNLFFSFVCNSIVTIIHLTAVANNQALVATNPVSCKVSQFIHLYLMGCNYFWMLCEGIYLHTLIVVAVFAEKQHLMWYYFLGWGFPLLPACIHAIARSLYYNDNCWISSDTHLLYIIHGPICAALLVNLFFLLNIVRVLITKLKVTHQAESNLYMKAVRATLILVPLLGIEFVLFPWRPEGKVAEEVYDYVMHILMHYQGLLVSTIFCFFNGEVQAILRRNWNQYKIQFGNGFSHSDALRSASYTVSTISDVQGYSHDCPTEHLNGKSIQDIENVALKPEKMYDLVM
UniProt Q9JJ74, 27-148 partner: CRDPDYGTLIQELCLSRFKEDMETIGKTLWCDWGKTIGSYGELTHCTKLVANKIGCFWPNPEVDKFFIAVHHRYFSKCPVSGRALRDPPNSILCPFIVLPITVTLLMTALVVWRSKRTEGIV

Biological target: T1, L6 skeletal myoblast cells expressing endogenous CRLR (CGRP receptor) (Rattus norvegicus, UniProt Q63118+Q9JJ74)
T1 construct: expressing endogenous CRLR; host or cells: L6 rat skeletal myoblast cells
Test: Stimulation of cAMP production in L6 cells
Format: cell-based
Conditions: cotreatment with intermedin, IMD17-47 at 1 μM, FIGS. 2C, 2D
Experimental: Stimulation of cAMP production in SK-N-MC and L6 cells by intermedin and related peptides. Human neuroblastoma SK-N-MC and rat L6 skeletal myoblast cells expressing endogenous CRLR were obtained from American Type Culture Collection. To estimate adenylyl cyclase activation, SK-N-MC and L6 cells (2×10^5 viable cells/well) were plated in 24-well culture dishes in DMEM/F12 medium one day before treatment. Following 2 h incubation in serum-free DMEM/F12 medium, cells were treated with testing reagents for 30 min in medium containing 0.1% BSA and 2.5 mM 3-isobutyl-1-methylxanthine (IBMX, Sigma-Aldrich Corp.) to prevent hydrolysis of cAMP by phosphodiesterases. Following treatment, cells were lysed and cAMP content determined by a specific radioimmunoassay.

Substance: CGRP8-37: N-terminally truncated CGRP, a CGRP receptor antagonist [reference compound]
- blockage of the stimulatory effect of intermedin on cAMP production: suppressed
